In one experiment the target is PIK3CD (Human) (UniProt O00329). Nature of the experiment: Assessment of PIK3CD Kinase Activity.
For the next experiment, the target named is PIK3CA (human) (UniProt P42336). Nature of the experiment: Assessment of PIK3CA Kinase Activity.

Protein sequences, listed by entry. Tags and fused reporters are not part of them. Lines headed by an entry give the natural chain unless they say otherwise; changes in a name come on top.
UniProt O00329: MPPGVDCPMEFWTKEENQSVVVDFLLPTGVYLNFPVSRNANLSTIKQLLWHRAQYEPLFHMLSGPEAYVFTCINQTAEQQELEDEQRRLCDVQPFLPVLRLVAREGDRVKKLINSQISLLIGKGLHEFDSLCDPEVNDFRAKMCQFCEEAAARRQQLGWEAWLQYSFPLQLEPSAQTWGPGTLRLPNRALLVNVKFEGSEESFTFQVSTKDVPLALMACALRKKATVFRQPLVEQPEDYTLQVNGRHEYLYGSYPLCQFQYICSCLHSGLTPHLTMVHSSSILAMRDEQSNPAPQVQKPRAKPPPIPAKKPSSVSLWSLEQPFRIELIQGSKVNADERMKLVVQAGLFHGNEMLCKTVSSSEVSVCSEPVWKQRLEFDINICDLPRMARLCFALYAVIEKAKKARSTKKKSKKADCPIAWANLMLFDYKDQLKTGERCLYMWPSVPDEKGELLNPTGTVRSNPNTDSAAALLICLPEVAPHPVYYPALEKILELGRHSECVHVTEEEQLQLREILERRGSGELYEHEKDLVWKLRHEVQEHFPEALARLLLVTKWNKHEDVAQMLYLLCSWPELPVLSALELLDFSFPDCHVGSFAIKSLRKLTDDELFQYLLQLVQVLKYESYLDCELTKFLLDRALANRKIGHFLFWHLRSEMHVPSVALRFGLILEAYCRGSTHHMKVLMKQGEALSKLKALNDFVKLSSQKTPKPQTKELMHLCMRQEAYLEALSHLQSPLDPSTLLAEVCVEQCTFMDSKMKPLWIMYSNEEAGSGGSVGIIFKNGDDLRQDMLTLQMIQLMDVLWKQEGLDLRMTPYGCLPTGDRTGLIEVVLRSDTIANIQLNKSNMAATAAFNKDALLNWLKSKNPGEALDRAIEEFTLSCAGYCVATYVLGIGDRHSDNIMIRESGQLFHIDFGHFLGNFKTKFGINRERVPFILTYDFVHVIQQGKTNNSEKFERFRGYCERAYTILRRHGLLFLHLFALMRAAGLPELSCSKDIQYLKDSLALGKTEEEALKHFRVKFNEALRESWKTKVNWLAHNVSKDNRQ
UniProt P42336, whole entry, looked up: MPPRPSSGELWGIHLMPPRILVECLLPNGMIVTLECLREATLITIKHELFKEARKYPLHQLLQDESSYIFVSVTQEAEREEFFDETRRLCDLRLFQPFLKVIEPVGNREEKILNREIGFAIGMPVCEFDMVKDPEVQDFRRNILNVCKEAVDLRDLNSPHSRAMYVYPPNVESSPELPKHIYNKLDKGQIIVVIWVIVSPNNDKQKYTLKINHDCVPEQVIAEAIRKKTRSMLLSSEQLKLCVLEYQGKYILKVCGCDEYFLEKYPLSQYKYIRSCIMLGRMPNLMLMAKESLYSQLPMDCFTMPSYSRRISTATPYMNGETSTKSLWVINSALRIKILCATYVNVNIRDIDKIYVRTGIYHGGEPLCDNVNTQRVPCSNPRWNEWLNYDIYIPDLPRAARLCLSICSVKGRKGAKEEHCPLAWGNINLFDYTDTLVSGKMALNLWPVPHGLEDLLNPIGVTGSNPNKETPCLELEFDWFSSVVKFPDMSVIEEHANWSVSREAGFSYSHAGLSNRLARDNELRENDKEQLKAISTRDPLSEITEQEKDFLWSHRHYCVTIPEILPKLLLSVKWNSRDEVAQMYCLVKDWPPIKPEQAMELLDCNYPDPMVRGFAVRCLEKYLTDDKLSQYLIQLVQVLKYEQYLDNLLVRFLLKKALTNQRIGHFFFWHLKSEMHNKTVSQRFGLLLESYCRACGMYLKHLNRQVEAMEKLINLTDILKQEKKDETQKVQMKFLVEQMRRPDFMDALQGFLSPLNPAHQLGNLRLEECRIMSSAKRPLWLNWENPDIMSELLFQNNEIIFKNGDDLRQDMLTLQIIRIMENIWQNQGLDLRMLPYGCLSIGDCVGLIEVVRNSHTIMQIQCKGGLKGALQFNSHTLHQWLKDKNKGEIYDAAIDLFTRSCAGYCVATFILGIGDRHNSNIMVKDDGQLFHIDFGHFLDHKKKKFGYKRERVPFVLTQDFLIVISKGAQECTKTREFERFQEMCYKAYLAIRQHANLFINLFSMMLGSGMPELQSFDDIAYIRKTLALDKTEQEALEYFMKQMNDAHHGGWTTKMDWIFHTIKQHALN

SMILES strings stand for the structures. pIC50: −log10 of the molar value.

For the molecule `COc1cccc2c1nc(C(F)F)n2-c1nc(-c2ccc(NS(=O)(=O)CCN(C)C)cc2)nc(N2CCOCC2)n1`, the results for the pIC50 against PIK3CD (Human) and against PIK3CA (human) were 6.00 to 7.00 and over 7.00, respectively.

Source of the values: the Kinase Knowledgebase extract (Sharma et al. 2016).
